In US8778871B2 (Takeda Pharmaceutical Company Limited, priority 2004, dated 2014):
Several values for one entry are separate records, joined by “and”; a condition that tells them apart may be missing. Equal entries are not always repeated.

Key:
[1] = Induction of ovulation in immature rat using metastin derivatives; assay type: in vivo; conditions: eCG-primed immature female Wistar rats; Group A, s.c. 20 IU/animal
Method: Equine chorionic gonadotropin (eCG, serotropin, Dainippon Pharmaceutical Co., Ltd.) was dissolved in saline (Otsuka Pharmaceutical Co., Ltd.) in a concentration of 100 IU/mL. Using a 1 ml tuberculin syringe and a 26-gauge needle (both by Terumo Co., Ltd.), eCG was subcutaneously injected into the dorsal area of female Wistar rats of 23 days old after birth (Charles River Japan, Inc.) in a dose of 10 IU/animal, during 9:00 to 10:00 AM. Following the eCG injection, the animal was grouped after 47 to 48 hours as shown below, to which groups, each drug was injected. […]
The number of oocytes was counted by referring to the method described in Eur. J. Endocrinol., 138, 594-600 (1998).
(§1) Where retention of oocytes in the oviducal ampulla was confirmed by stereomicroscopic observation of the oviduct, the ampulla was punctured with a 27-gauge needle for syringe (Terumo) to retrieve the oocytes. After granulosa cells surrounding the oocytes were removed by trypsin treatment, the number of oocytes was counted. […]
The blood estradiol level was measured by radioimmunoassay (DPC.Estradiol Kit, Iatron, Inc.).
The blood progesterone level was measured by radioimmunoassay (DPC.Progesterone, Iatron, Inc.).

[2] = Induction of ovulation by human metastin in immature rat; assay type: in vivo
Method: Equine chorionic gonadotropin (eCG, serotropin, Dainippon Pharmaceutical Co., Ltd.) was dissolved in saline (Otsuka Pharmaceutical Co., Ltd.) in a concentration of 100 IU/mL. Using a 1 ml tuberculin syringe and a 26-gauge needle (both by Terumo Co., Ltd.), eCG was subcutaneously injected into the dorsal area of female Wistar rats of 23 days old after birth (Charles River Japan, Inc.) in a dose of 10 IU/animal, during 9:30 to 10:00 AM. Following the eCG injection, the animal was grouped after 47 to 48 hours as shown below, to which groups, each drug was injected.
Group A (5 rats): Human chorionic gonadotropin (hCG, gonadotropin, Dainippon Pharmaceutical Co., Ltd.) was dissolved in saline at 100 IU/mL and the solution was subcutaneously injected into the back in a dose of 20 IU/animal.
Group D (6 rats): Saline was subcutaneously injected into the back in a dose of 200 μL/animal.
After administration of the drugs described above, the animal was sacrificed by decapitation after 24 to 25 hours to recover blood, bilateral oviducts and uterus. In collecting blood, 90 μl of 10 KIU/ml aprotinin solution (Trasylol, Bayer) containing 3 mg/ml EDTA had been previously filled in a tube for recovery to prevent blood clotting. After blood recovery, the blood was thoroughly blended and the mixture was centrifuged at 2,000 G for 25 minutes. […]
The number of oocytes was counted as follows.
as §1, with “with a syringe with 27-gauge needle” for “with a 27-gauge needle”
The level of estradiol contained in the plasma collected from the rats shown in TABLE 22 was determined by radioimmunoassay (DPC-Estradiol Kit; Diagnostic Products Corporation).
The level of progesterone contained in plasma was determined by radioimmunoassay (DPC.Progesterone; Diagnostic Products Corporation).

Substance: hCG: Human chorionic gonadotropin (hCG, gonadotropin, Dainippon Pharmaceutical Co., Ltd.)
- number of oocytes in average per rat [1]: 38.0 oocytes
- Average of Ovulation (number of oocytes) ([2]; Group A: hCG 20 IU/animal s.c., immature rat, 5 rats): 37.6
- number of oocytes, individual rat ([2]; Group A: hCG 20 IU/animal s.c., immature rat, 24 to 25 hours after administration): 36 and 35 (2×) and 40 and 42
- number of oocytes in average per rat ([2]; eCG-primed immature female Wistar rats, Group A, s.c. 20 IU/animal): 37.6 oocytes
